Data set [1] in a line: Mixing time effects on solvent/detergent components (RP-HPLC).
Data set [2] can be described thus: Temperature effects on solvent/detergent components before and after 0.2 μm filtration (HPLC). The format is physicochemical. As to conditions: for S/D component concentration after 0.2 μm filtration, Mean / S/D component concentration before 0.2 μm filtration, Mean: n = 3; for S/D component concentration after 0.2 μm filtration / S/D component concentration before 0.2 μm filtration: runs 1-3. How it is done: In order to evaluate the influence of a lower temperature on the mixing time of solvent/detergent components, 50 mL solvent/detergent solutions were prepared by adding 0.3% (v/v) TNBP, 1.0% (v/v) polyoxyethylene octyl phenyl ether (TRITON® X-100) and 0.3% (v/v) polysorbate 80 sorbitan monooleate (TWEEN® 80) and stirring at 4±2° C. for 10, 20, or 30 minutes. As the solvent/detergent solution already contained 0.1% polysorbate 80 sorbitan monooleate (TWEEN® 80), the final concentration for this compound was of 0.4%. The concentration of TNBP and polyoxyethylene octyl phenyl ether (TRITON® X-100) were determined simultaneously by using C18 RP-HPLC with a refractive index detector (RID). The concentration of polysorbate 80 sorbitan monooleate (TWEEN® 80) was determined by C1 RP-HPLC using an evaporative light scattering detector (ELSD). For the HPLC analysis of TNBP and polyoxyethylene octyl phenyl ether (TRITON® X-100), an isocratic elution is employed using 68% methanol in water. In the assay of polysorbate 80 sorbitan monooleate (TWEEN® 80), a gradient elution from 60% methanol in water to 100% methanol is used.
To evaluate the impact of the temperature toward a potential retention of solvent/detergent conponents during the filtration step, 50 mL solvent/detergent solutions were prepared by adding 0.3% (v/v) TNBP, 1.0% (v/v) polyoxyethylene octyl phenyl ether (TRITON® X-100) and 0.3% (v/v) polysorbate 80 sorbitan monooleate (TWEEN® 80), stirring at 4±2° C. for 30 minutes and the concentration of each component was measured as described above. The solvent/detergent solutions were then processed under three different temperature conditions: 22.5° C. with a warm up period of about 8 hours; 22.5° C. with a warm up period of about 2 hours; and 4° C. without any warm-up or preheating step. At the end of the incubation period, samples were filtrated through a 0.2 μm filter and TNBP, polyoxyethylene octyl phenyl ether (TRITON® X-100) and polysorbate 80 sorbitan monooleate (TWEEN® 80) concentrations were measured by HPLC.

Molecules are shown by their SMILES. Where “and” joins values, the source holds several entries; their conditions need not be identical. Equal entries are not always repeated.

As to `CCCCOP(=O)(OCCCC)OCCCC`, the “S/D component concentration, Mean” value in data set [1] (mean of 10, 20, 30 min stirring at 4±2° C.) amounted to 0.36 ± 0.01%. For the same molecule, the S/D component concentration came out at 0.36% in data set [1] (stirring at 4±2° C. for 10 min), 0.35% in data set [1] (stirring at 4±2° C. for 20 min) and 0.37% in data set [1] (stirring at 4±2° C. for 30 min). Further, the “S/D component concentration after 0.2 μm filtration, Mean” value amounted to 0.27% in data set [2] (4° C./2 H), 0.28% in data set [2] (22.5° C./2 H) and 0.27% in data set [2] (22.5° C./8 H). Also, the “S/D component concentration before 0.2 μm filtration, Mean” value in data set [2] (4° C./2 H) stood at 0.27%; in data set [2] (22.5° C./2 H), 0.28%; in data set [2] (22.5° C./8 H), 0.26%. The “S/D component concentration after 0.2 μm filtration” value in data set [2] (4° C./2 H) is 0.27% and 0.28%; in data set [2] (22.5° C./2 H), 0.28% and 0.29%; in data set [2] (22.5° C./8 H), 0.28% and 0.25%. In addition, the “S/D component concentration before 0.2 μm filtration” value in data set [2] (4° C./2 H) was 0.27% and 0.28%; in data set [2] (22.5° C./2 H) it was 0.28% and 0.27%; in data set [2] (22.5° C./8 H), 0.23% and 0.28%.
